# Results published in IntAct's records for PubMed 35512704.
# B1: RAC-alpha serine/threonine-protein kinase (Homo sapiens), P31749 (parent)
# chain: MSDVAIVKEGWLHKRGEYIKTWRPRYFLLKNDGTFIGYKERPQDVDQREAPLNNFSVAQCQLMKTERPRPNTFIIRCLQWTTVIERTFHVETPEEREEWTTAIQTVADGLKKQEEEEMDFRSGSPSDNSGAEEMEVSLAKPKHRVTMNEFEYLKLLGKGTFGKVILVKEKATGRYYAMKILKKEVIVAKDEVAHTLTENRVLQNSRHPFLTALKYSFQTHDRLCFVMEYANGGELFFHLSRERVFSEDRARFYGAEIVSALDYLHSEKNVVYRDLKLENLMLDKDGHIKITDFGLCKEGIKDGATMKTFCGTPEYLAPEVLEDNDYGRAVDWWGLGVVMYEMMCGRLPFYNQDHEKLFELILMEEIRFPRTLGPEAKSLLSGLLKKDPKQRLGGGSEDAKEIMQHRFFAGIVWQHVYEKKLSPPFKPQVTSETDTRYFDEEFTAQMITITPPDQDDSMECVDSERRPHFPQFSYSASGTA
# partner: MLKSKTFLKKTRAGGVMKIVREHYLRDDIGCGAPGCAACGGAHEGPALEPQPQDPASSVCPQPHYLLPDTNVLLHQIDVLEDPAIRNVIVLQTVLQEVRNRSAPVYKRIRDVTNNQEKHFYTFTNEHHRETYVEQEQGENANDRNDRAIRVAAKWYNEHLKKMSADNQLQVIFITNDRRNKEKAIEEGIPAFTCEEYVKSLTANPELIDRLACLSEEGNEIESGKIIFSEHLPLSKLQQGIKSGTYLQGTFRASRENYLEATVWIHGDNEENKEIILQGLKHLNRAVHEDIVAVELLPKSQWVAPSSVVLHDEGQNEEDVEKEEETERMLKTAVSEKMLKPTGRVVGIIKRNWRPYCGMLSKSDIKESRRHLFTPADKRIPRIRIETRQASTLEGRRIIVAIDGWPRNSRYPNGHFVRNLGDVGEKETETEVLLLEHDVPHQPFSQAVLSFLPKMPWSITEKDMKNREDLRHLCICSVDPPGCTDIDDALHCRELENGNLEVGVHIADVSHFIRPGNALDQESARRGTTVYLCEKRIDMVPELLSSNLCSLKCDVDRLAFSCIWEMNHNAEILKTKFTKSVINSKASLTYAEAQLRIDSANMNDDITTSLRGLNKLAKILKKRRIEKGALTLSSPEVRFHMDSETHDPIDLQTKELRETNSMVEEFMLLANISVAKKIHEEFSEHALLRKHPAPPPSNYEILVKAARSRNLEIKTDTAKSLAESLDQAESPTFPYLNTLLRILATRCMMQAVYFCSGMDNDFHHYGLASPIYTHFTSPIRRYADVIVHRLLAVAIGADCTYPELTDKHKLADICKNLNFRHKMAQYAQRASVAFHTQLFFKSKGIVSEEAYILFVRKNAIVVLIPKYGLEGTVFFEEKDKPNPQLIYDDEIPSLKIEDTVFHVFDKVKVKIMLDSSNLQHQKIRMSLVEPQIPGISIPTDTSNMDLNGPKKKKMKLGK
# B2: RAC-alpha serine/threonine-protein kinase (Homo sapiens), P31749 (parent)
# chain: B1 chain
# partner: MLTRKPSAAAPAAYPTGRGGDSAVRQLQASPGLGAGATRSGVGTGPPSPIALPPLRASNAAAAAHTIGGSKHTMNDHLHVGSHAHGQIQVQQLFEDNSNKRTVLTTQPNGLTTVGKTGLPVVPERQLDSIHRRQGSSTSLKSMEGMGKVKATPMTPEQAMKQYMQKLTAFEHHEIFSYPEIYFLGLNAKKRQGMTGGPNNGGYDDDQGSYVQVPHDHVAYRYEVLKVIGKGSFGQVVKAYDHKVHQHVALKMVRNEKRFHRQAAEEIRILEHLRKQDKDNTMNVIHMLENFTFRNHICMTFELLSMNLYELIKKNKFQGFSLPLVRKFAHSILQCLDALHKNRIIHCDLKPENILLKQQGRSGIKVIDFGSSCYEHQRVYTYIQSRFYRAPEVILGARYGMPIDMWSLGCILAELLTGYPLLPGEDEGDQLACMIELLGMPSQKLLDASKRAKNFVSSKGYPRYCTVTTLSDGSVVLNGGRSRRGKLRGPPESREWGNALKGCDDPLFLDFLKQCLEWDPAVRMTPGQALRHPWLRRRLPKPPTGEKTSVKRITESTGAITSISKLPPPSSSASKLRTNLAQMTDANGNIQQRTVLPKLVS
# B3: RAC-alpha serine/threonine-protein kinase (Homo sapiens), P31749 (parent)
# chain: B1 chain
# partner: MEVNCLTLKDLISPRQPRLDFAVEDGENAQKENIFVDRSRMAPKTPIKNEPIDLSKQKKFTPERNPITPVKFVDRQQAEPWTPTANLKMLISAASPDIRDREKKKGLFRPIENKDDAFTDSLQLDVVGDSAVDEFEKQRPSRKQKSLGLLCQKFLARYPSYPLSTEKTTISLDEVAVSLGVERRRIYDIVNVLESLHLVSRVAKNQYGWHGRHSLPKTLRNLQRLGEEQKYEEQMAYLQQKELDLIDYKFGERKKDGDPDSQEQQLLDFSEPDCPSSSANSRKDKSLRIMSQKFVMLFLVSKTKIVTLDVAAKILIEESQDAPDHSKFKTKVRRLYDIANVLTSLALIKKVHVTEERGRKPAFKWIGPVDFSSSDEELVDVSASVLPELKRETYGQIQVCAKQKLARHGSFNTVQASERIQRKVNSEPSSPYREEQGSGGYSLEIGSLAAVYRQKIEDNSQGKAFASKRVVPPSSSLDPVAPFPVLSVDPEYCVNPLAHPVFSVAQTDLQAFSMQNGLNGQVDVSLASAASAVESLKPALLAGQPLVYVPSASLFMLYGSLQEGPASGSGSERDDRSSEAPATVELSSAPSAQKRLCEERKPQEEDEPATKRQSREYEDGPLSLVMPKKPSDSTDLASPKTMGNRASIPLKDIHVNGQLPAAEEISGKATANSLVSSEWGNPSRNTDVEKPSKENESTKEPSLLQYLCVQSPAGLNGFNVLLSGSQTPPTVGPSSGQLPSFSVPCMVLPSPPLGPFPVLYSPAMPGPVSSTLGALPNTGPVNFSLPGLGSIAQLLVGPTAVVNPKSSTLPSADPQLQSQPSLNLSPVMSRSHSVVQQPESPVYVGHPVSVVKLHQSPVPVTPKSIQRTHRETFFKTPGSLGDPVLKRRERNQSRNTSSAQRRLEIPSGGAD
# B4: RAC-alpha serine/threonine-protein kinase (Homo sapiens), P31749 (parent)
# chain: B1 chain
# partner: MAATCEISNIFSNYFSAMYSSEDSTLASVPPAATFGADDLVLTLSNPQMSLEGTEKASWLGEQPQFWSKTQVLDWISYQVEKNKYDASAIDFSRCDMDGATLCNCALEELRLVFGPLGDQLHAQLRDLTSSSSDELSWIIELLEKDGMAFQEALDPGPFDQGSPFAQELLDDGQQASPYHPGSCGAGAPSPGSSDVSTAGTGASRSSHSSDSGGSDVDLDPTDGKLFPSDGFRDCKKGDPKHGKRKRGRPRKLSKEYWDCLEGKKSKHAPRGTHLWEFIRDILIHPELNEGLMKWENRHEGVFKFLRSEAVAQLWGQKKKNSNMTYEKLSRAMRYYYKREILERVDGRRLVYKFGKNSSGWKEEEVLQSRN
# Variants of: B1
# Conditions: with rrp44_human DIS3, Q9Y2L1
row,effect of a mutation on the interaction,Variant
1,with no effect,E17K

# Variants of: B2
# Conditions: with dyrk2_human DYRK2, Q92630
row,effect of a mutation on the interaction,Variant
1,with no effect,E17K

# Variants of: B3
# Conditions: with e2f7_human E2F7, Q96AV8
row,effect of a mutation on the interaction,Variant
1,with no effect,E17K

# Variants of: B4
# Conditions: with elf3_human ELF3, P78545
row,effect of a mutation on the interaction,Variant
1,with no effect,E17K
